Test results as given in patent US20230103554A1, “TNFa SIGNALING [sequence] TUMOR-PROMOTING INFLAMMATION THAT CAN BE TARGETED TO THERAPY” (Baylor College of Medicine, priority 2020, published 2023).

Legend:
Assay type in all cases: cell-based, human
SK-N-AS-luc = assay: rhTNF viability curve by luminescence; details: 1-16,000 pg/mL rhTNF, 48 hours
Method: (§1) (FIG. 8A) Luciferase expressing CHLA-255-luc and SK-NAS-luc were cultured in 1-16,000 pg/mL rhTNF for 48 hours and viability of the cells was measured by luminescence. Data was normalized to untreated control and graphed as % Viability versus Log10 of TNF concentration.

CHLA-255-luc = assay: rhTNF viability curve by luminescence; details: 1-16,000 pg/mL rhTNF, 48 hours
Method: as §1

NB cell lines = assay: Intracellular IκBα in NB cell lines treated with TNFα (PhosFlow); details: 12 hours
Method: (FIG. 2A) Representative panel of NB cell lines were analyzed for TNFR1 and TNFR2 surface expression by flow cytometry. (FIG. 2B) NB cell lines were treated with recombinant human TNFα (rhTNFα) (10 ng/mL) for 12 hours and intracellular IκBα levels were determined by PhosFlow flow cytometry and normalized to their respective untreated controls (set to 1). (FIG. 2C) NB cell lines were cultured with human monocytes for 24 hours and intracellular flow cytometry intracellular IκBα levels were determined by PhosFlow flow cytometry and normalized to their respective NB only controls (set to 1). Surface staining of CD45 and GD2 were used to differentiate Monocyte (CD45+, GD2−) and NB (CD45−, GD2Low-high) populations. * p<0.05, ** p<0.01;
(FIG. 23A) NB cell lines were co-cultured with monocytes for 24 hours. Intracellular IκBα expression level within CD45-GD2+NB population was determined by PhosFlow flow cytometry and IκBα MFI normalized to NB alone control. Mean normalized IκBα MFI±SD from cultures run in duplicate. […] Intracellular IκBα expression level was determined by PhosFlow flow cytometry and IκBα MFI normalized to NB untreated (PBS) control. […] Intracellular IκBα expression level within CD45-GD2+NB population was determined by PhosFlow flow cytometry and IκBα MFI normalized to NB alone control. […]

rhTNFα: recombinant human TNFα
viability with increasing rhTNF concentration (SK-N-AS-luc): viability decreased | viability with increasing rhTNF concentration (CHLA-255-luc): remained viable | IκBα levels compared to untreated controls (NB cell lines; 5 ng/mL TNFα): drop in IκFα levels | IκBα expression compared to untreated NB cells (NB cell lines; rhTNFα 10 ng/mL): decreasing trend of IκBα expression
